Shown are actives, neighbours in structure and some others; about 2.2% of the full set was active somewhere.
Nrf2 block = inhibitors of Nrf2 signaling; hit rate 2.1% among 360,000; A549 ARE-Fluc reporter, luciferase luminescence, 18-24 h; Potency, µM (titrated, usually from 46 µM), hits mostly inhibitors; note: nearly all actives have a fitted effect of over 60% in size
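A549 ARE_Fluc cells (5000/well, 5% FBS OPTI-MEM) pre-incubated 2 h, then treated with compounds 18-24 h at 37C/5% CO2 in concentration-response. CellTiter-Fluor viability read first; BugLite luciferase luminescence after 15 min at room temperature gives Nrf2 activity.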
B2AR arrestin = beta2AR (human) beta-arrestin recruitment activity | Potency, µM (titrated, usually from 46.1 µM), hits mostly activators | beta-arrestin recruitment to beta2AR, cell-based reporter | P07550 | hit rate 0.02% among 330,000; note: nearly all actives have a fitted effect of over 65% in size
Nrf2 activator = activates Nrf2 signaling. AREc32 ARE-luciferase reporter (MCF7-derived line), luminescence, 24 h. Potency, µM (titrated, usually from 46.1 µM), usual class: activators. hit rate 0.31% among 410,000; note: nearly all actives have a fitted effect of over 65% in size
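AREc32 cells carrying an ARE-driven firefly luciferase, 1000 cells/well in OPTI-MEM with 5% FBS, dosed after overnight attachment and incubated 24 hr at 37 deg C. Steady-Glo luminescence read after 30 min at RT.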
A549 viability = A549 cytotoxicity, counter-screen for Nrf2 inhibitors | A549 ARE-Fluc cells, CellTiter-Fluor viability, 18-24 h | Potency, µM (series often up to 46 µM), hits mostly inhibitors | hit rate 0.16% among 390,000
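A549 ARE_Fluc cells in 5% FBS OPTI-MEM were exposed to compounds in concentration-response for 18-24 h at 37 deg C. Viability was read by CellTiter-Fluor fluorescence (Ex 405/Em 525) after 30 min, before the luciferase read.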
miR-21 FLuc = raises the signal of a miR-21 reporter | HeLa miR-21 FLuc reporter, luciferase, 48 h | Potency, µM (doses to about 38.3 µM) | 340,000 tested, under 10 active | AID 2288; active = well fitted rising curve with a large enough effect; inconclusive = small, poorly fitted or top-dose-only effect; inactive = no such curve, though single readings can be large or run the other way;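 note: miR-21 action dims this reporter so a rising signal means less miR-21 action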
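HeLa cells stably expressing CMV-driven firefly luciferase with a downstream miR-21 binding sequence, endogenously expressing miR-21, were treated with titrations (up to about 40uM final) for 48 hours at 37 degree Celsius. Luciferase luminescence was read after lysis.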
Large screens that a line does not name were inactive. Unless noted, calls come from the whole dose curve; as a rule, active = well fitted curve in the direction sought with a large enough effect; inconclusive = small, poorly fitted or top-dose-only effect, or another doubt; inactive = no such curve, though single readings can be large; an effect the other way counts as inactive or inconclusive.

Cc1ccc(-c2c(C)n3c4c(=O)n(C)c(=O)n(C)c4nc3n2CCCO)cc1	Nrf2 block 18.4µM, miR-21 FLuc inconclusive (no result: B2AR arrestin)
COC(=O)CCCn1c(-c2ccc(C)cc2)c(C)n2c3c(=O)n(C)c(=O)n(C)c3nc12	none (no result: B2AR arrestin)
COc1ccc(-n2ncc3c(=O)n(CC(=O)N4c5ccccc5CC4C)cnc32)cc1 (centres undefined)	Nrf2 block 8.2µM, A549 viability inconclusive
CCOC(=O)Cn1cnc2c(cnn2-c2ccc(OC)cc2)c1=O	Nrf2 block inconclusive
Cc1ccccc1OCC(=O)NCC(=O)OC(c1ccccc1)c1ccccc1	none (no result: B2AR arrestin, Nrf2 activator, miR-21 FLuc)
O=C(NCCOCCn1c(=O)oc2ccccc21)Nc1ccc(Cl)cc1	none (no result: B2AR arrestin)
CC(C)(C)OC(=O)N1CCC(c2c(C(=O)NCc3ccccn3)cnn2-c2ccccc2)CC1	none (no result: B2AR arrestin)
COCCCNc1nc2ccccc2nc1NS(=O)(=O)c1cc(Cl)ccc1Cl	Nrf2 block 20.6µM
COCCCNc1nc2ccccc2nc1NS(=O)(=O)c1ccc(Cl)cc1	none
Cc1ccc(NC(=O)c2sc(-n3nc(C)c(Cc4ccc5c(c4)OCO5)c3C)nc2C)cc1C	none (no result: B2AR arrestin)
CC(=O)c1cccc(NC(=O)c2sc(-n3nc(C)c(Cc4ccc5c(c4)OCO5)c3C)nc2C)c1	Nrf2 block 9.2µM, A549 viability inconclusive (no result: B2AR arrestin)
COc1ccc(-c2nc(C)c(CCNC(=O)C(=O)Nc3ccccc3F)s2)cc1	none (no result: Nrf2 block, B2AR arrestin)
CC(C)(C)c1ccc(C2Sc3ccccc3NC3=C2C(=O)c2ccccc23)cc1 (centres undefined)	Nrf2 block 18.4µM, A549 viability inconclusive, miR-21 FLuc inconclusive (no result: B2AR arrestin)
CC(=O)c1c(C)[nH]c(C(=O)Nc2nc(-c3ccc(-c4ccccc4)cc3)cs2)c1C	Nrf2 block 23.1µM, A549 viability inconclusive
COc1ccc(-c2csc(NC(=O)c3ccccc3S(C)(=O)=O)n2)cc1	Nrf2 block 16.4µM
COc1ccc(C(=O)Nc2nc(-c3ccccn3)cs2)cc1S(=O)(=O)N1CCOCC1	Nrf2 block 16.4µM (no result: miR-21 FLuc)
CC(=O)c1c(C)[nH]c(C(=O)Nc2nc(-c3ccc(Cl)cc3)cs2)c1C	Nrf2 block inconclusive
O=C(Nc1nc(-c2ccccn2)cs1)c1cccc(S(=O)(=O)N2CCOCC2)c1	Nrf2 block 3.26µM, A549 viability inconclusive (no result: miR-21 FLuc)
Cc1csc2nc(-c3cccc(NC(=O)c4cccc(F)c4)c3)cn12	none (no result: Nrf2 block, B2AR arrestin)
Cc1ccc(S(=O)(=O)C(CNC(=O)c2ccccc2F)c2cccs2)cc1 (centres undefined)	none (no result: Nrf2 block, B2AR arrestin)
CCCN1CNc2c(c(=O)[nH]c(=S)n2CCc2ccccc2Cl)C1	none (no result: B2AR arrestin, Nrf2 activator, miR-21 FLuc)
COc1ccc(-c2csc(NC(=O)c3cccc(S(=O)(=O)N4CCN(C)CC4)c3)n2)cc1	Nrf2 block 14.6µM
COc1ccc(-c2csc(NC(=O)C3CCCCN3S(=O)(=O)c3ccccc3)n2)cc1 (centres undefined)	Nrf2 block 23.1µM
Cc1ccc(S(=O)(=O)N2CCOCC2)cc1C(=O)Nc1nc(-c2ccccn2)cs1	Nrf2 block 9.2µM (no result: miR-21 FLuc)
COc1ccc(-c2csc(NC(=O)CS(=O)(=O)c3ccccc3)n2)cc1	Nrf2 block inconclusive (no result: miR-21 FLuc)
CCOc1ccccc1CNC(=O)CSc1n[nH]c(-c2ccccc2)n1	none (no result: Nrf2 block, B2AR arrestin)
CCOc1ccc(NC(=O)CN2CCSc3ccc(S(=O)(=O)N4CCCC4)cc32)cc1	A549 viability inconclusive (no result: Nrf2 block, B2AR arrestin)
CCOC(=O)CC(NC(=O)CCc1c(C)nc2cc(-c3ccccc3)nn2c1C)c1ccc(C)cc1 (centres undefined)	Nrf2 block inconclusive, miR-21 FLuc inconclusive (no result: B2AR arrestin)
COc1cc(NC(=O)c2cc3c(s2)-c2ccccc2OC3)cc(OC)c1OC	Nrf2 block 20.6µM, miR-21 FLuc inconclusive (no result: B2AR arrestin)
COc1ccc(CCNC(=O)c2cc3c(s2)-c2c(C)cccc2OC3)c(OC)c1	Nrf2 block 20.6µM (no result: B2AR arrestin)
COc1ccc(OC)c(CCNC(=O)c2cc3c(s2)-c2c(C)cccc2OC3)c1	none (no result: B2AR arrestin)
Cc1ccnc(S(=O)(=O)Cc2ccc([N+](=O)[O-])cc2)n1	Nrf2 block inconclusive, Nrf2 activator 12.6µM
Cn1c(CO)cnc1S(=O)(=O)Cc1ccc([N+](=O)[O-])cc1	none (no result: Nrf2 block)
COc1ccc(NC(=O)CC2C(=O)N(C)C(=S)N2CCc2ccc(F)cc2)cc1 (centres undefined)	Nrf2 block 23.1µM, A549 viability inconclusive, miR-21 FLuc inconclusive
COc1ccc(NC(=O)CCc2c(C)nc3c(c2C)c(=O)n(C)c(=O)n3C)c(OC)c1	none (no result: B2AR arrestin)
COc1cccc(-c2nnc(NC(=O)c3ccc(S(=O)(=O)N4CCOCC4)cc3)o2)c1	Nrf2 block 11.6µM
COCc1nnc(NC(=O)c2ccc(S(=O)(=O)N3CCCc4ccccc43)cc2)o1	A549 viability inconclusive
O=C(Nc1nnc(C2CC2)o1)c1ccc(S(=O)(=O)N2CCCc3ccccc32)cc1	Nrf2 block 10.3µM, miR-21 FLuc inconclusive
COc1ccc(-c2nnc(NC(=O)c3ccc(S(=O)(=O)N4CCCc5ccccc54)cc3)o2)cc1	Nrf2 block 14.1µM, A549 viability inconclusive
COc1cccc(C2c3c(ncn(-c4cccc(C)c4)c3=N)Oc3ccc4ccccc4c32)c1 (centres undefined)	none (no result: B2AR arrestin, Nrf2 activator, miR-21 FLuc)
CCc1ccc(CNC(=O)C2CCN(C(=O)c3ccc(-n4ccc5ccccc54)s3)CC2)cc1	Nrf2 block inconclusive (no result: B2AR arrestin)
c1cncc(CNc2ncnc3ccc(-c4ccco4)cc23)c1	none (no result: Nrf2 block, Nrf2 activator, A549 viability, miR-21 FLuc)
CC1CCCCC1NC(=O)CN1CCC(NC(=O)c2ccc([N+](=O)[O-])cc2)CC1 (centres undefined)	Nrf2 block 7.31µM
Cc1ccc(CNC(=O)CCc2nc3cccnc3n2Cc2ccccc2)cc1	none (no result: B2AR arrestin)
CCOc1c2c(c(-c3ccc4c(c3)OCO4)c3cc(OC)c(OC)cc13)C(=O)OC2	Nrf2 block 1.84µM, A549 viability 2.91µM (no result: B2AR arrestin, Nrf2 activator, miR-21 FLuc)
O=C(CNC(=O)C1CCCCC1)OCc1ccccc1	none (no result: B2AR arrestin, Nrf2 activator, miR-21 FLuc)
Cc1ccc(S(=O)(=O)N2C(=O)c3cccc4cccc2c34)cc1	Nrf2 block 14.6µM, A549 viability inconclusive
CC(NC(=O)c1cccc(NC(=O)c2nsc3ccccc23)c1)c1ccccc1 (centres undefined)	none (no result: Nrf2 block, B2AR arrestin)
Cc1cccc(-c2noc(-c3cccnc3NCc3ccco3)n2)c1	Nrf2 block inconclusive (no result: B2AR arrestin)
COc1ccc(N2CCN(C(=O)c3c(-c4ccccc4)noc3C)CC2)cc1	none
Cc1noc(C)c1C(=O)N1CCN(c2ccc(OCc3ccccc3)cc2)CC1	Nrf2 block 20.6µM
COC(=O)c1ccc(Cn2cnc3c(cnn3-c3ccc(C)c(C)c3)c2=O)o1	Nrf2 block 23.1µM
Cc1c(N2C(=O)/C(=C\c3ccc(N(C)C)cc3)N(C)C2=S)c(=O)n(-c2ccccc2)n1C	A549 viability 14.6µM
CCC(C(=O)N1CCN(c2ccccc2F)CC1)n1nc(C)c2sc3ccccc3c2c1=O (centres undefined)	Nrf2 block inconclusive (no result: B2AR arrestin)
O=C(c1ccc2c(c1)OCO2)N(Cc1ccco1)C1(C(=O)NC2CCCCC2)CCCCC1	Nrf2 block 18.4µM, A549 viability inconclusive

Screening data (PubChem BioAssay)
